# Results published in PubChem BioAssay AID720700 (The Scripps Research Institute Molecular Screening Center, 2013).
# Amino acid sequences for entries named in this document (tags omitted). A change or cut given only in a name is not applied to a line headed by its entry.
# UniProt P19174: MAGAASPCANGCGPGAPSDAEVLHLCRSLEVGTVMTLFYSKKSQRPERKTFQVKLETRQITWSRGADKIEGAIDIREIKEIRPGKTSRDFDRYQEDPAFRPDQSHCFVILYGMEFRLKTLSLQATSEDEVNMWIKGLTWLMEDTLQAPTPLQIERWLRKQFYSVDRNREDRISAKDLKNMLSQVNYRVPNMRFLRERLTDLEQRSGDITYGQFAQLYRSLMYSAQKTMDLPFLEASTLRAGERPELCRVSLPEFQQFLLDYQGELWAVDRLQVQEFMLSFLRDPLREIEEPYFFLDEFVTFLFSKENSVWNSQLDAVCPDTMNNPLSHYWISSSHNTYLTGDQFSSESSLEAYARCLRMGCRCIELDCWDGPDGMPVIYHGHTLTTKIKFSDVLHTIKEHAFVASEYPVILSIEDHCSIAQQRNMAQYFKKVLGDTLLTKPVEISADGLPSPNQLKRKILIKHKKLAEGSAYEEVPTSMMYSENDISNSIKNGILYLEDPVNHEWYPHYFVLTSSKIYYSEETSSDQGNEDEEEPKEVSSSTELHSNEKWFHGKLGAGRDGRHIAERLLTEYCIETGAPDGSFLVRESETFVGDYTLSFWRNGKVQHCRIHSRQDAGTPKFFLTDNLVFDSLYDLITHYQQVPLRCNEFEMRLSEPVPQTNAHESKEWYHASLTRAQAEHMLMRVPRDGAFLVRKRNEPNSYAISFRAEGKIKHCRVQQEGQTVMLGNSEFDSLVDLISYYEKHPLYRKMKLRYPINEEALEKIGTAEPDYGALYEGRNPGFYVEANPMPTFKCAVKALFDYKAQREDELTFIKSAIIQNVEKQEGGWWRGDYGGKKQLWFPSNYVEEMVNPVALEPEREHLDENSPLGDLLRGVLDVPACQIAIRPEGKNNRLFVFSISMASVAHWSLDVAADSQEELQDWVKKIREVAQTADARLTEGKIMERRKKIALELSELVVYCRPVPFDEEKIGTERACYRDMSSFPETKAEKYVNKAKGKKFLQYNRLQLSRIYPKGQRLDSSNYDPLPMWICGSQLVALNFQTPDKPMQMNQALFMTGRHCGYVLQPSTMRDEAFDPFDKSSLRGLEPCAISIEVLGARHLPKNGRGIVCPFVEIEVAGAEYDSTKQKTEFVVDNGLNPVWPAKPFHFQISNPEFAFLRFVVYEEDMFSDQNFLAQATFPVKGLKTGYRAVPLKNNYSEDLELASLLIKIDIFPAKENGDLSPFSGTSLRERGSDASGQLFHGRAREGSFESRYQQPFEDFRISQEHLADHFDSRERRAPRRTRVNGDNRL
# The entries are a selection whose mix differs from that of the whole data set. The source made the active and inactive calls. Cut-off read from the data, not from the text of the source: active = inhibition above about 9.5%; inactive = the rest.
# Biological target: 1-phosphatidylinositol 4,5-bisphosphate phosphodiesterase gamma-1 (Homo sapiens) (UniProt P19174)
# Test: PLC-gamma1 enzyme inhibitors, primary screen, biochemical, fluorescence, purified enzyme (AID 720700)
# Details: purified PLC-gamma1, fluorogenic substrate, at 12.2 µM, active compounds read high
row,SMILES,inhibition
1,C[C@H]1OP(=O)(Oc2ccccc2)[C@H](O)[C@H](O)[C@H]1N=[N+]=[N-] (some centres not stated),inactive: 0.92%
2,O=P(Nc1nc2ccccc2s1)(c1ccccc1)c1ccccc1,inactive: -1.29%
3,CN(C)C1(CNC(=O)c2ccc(Cl)c(S(N)(=O)=O)c2)CCCCC1,inactive: 0.25%
4,O=P(Nc1ccccn1)(c1ccc(Br)cc1)c1ccc(Br)cc1,inactive: -2.54%
5,Nc1ccc(CCCCOc2ccccc2)cc1,inactive: 0.64%
6,COc1ccc(N)c([N+](=O)[O-])c1[N+](=O)[O-],inactive: 1.91%
7,O=C(OC1CN2CCC1CC2)c1cccc(Cl)c1 (configuration not stated),inactive: 2.22%
8,Nc1ccc([As](=O)(O)c2ccc([N+](=O)[O-])cc2)cc1,inactive: 0.59%
9,C(Cc1nn[nH]n1)Cc1nn[nH]n1,inactive: -0.41%
10,C/C(N)=N\P(=O)(OCc1ccccc1)OCc1ccccc1,inactive: 2.42%
11,O=[As](O)(c1ccccc1)c1ccc(O)cc1,inactive: 3.48%
12,O=[N+]([O-])c1ncn(CCn2cnc([N+](=O)[O-])n2)n1,inactive: 1.41%
13,CC(=O)NC(SC(=S)N(C)C)C(Cl)(Cl)Cl (configuration not stated),inactive: 3.47%
14,c1nnnn1CCn1cnnn1,inactive: 1.6%
15,O=P(Nc1nccs1)(c1ccccc1)c1ccccc1,inactive: 1.8%
16,CC(C)C(=O)NC(Sc1ccccc1)C(Cl)(Cl)Cl (configuration not stated),inactive: 2.46%
17,CC(C)(C)C(=O)NC(Sc1ccccc1)C(Cl)(Cl)Cl (configuration not stated),inactive: 4.35%
18,CCc1cc(O)c([N+](=O)[O-])c(C)c1[N+](=O)[O-],inactive: -2%
19,CCOc1ccc(C2=NCC(CBr)S2)cc1 (configuration not stated),inactive: 0.72%
20,O=P1(Nc2nc3ccc(Cl)cc3s2)COc2ccccc2O1 (configuration not stated),inactive: 1.79%
21,CC(=O)Nc1ccc(Oc2c([N+](=O)[O-])cc([N+](=O)[O-])cc2[N+](=O)[O-])cc1,inactive: 1.74%
22,CC(=O)Nc1ccc([As](=O)(O)O)c(O)c1,inactive: 1.72%
23,C[C@@H]1C=CCP(=O)(Oc2ccccc2)O1 (some centres not stated),inactive: 3.77%
24,C[C@H]1OP(=O)(Oc2ccccc2)C[C@@H]2O[C@@H]21 (some centres not stated),inactive: 1.63%
25,Cc1ccccc1CN(C)C(=O)COC(=O)C(O)(c1ccccc1)c1ccccc1,inactive: 1.77%
26,COC(=O)C1(C)COP(=O)(NCc2ccccc2)OC1 (configuration not stated),inactive: 0.58%

row,SMILES,inhibition
1,N#C/C(=C\c1ccc(N(CCBr)CCBr)cc1)C(N)=O,inactive: -15.7%
2,CC(=O)c1ccc(N2CC2c2ccncc2)cc1 (configuration not stated),inactive: 0.14%
3,O=P1(N(CCCl)CCCl)OCCC2CCCCN21 (configuration not stated),inactive: 9.42%
4,Cc1ccc(NP(=O)(Oc2cccc(C)c2)Oc2cccc(C)c2)nc1,inactive: 3.3%
5,c1ccc(-c2nn[nH]n2)c(-c2nn[nH]n2)c1,inactive: 1.97%
6,O=C(NC1CCS(=O)(=O)C1)NP(=S)(Oc1ccccc1)Oc1ccccc1 (configuration not stated),inactive: 2.22%
7,CCNC(=S)/N=C(\N)N[N+](=O)[O-],inactive: 2.31%
8,CN(C)C(=O)Oc1noc2ccccc12,inactive: 1.83%
9,O=c1c2cc([N+](=O)[O-])ccc2[nH]c2c([N+](=O)[O-])cc([N+](=O)[O-])cc12,inactive: -0.1%
10,Cc1ccccc1OP(=O)(Nc1ccccn1)Oc1ccccc1C,inactive: -5.11%
11,CC(NC(=O)COC(=O)C(O)(c1ccccc1)c1ccccc1)c1ccccc1 (configuration not stated),inactive: 2.42%
12,CCC(=O)N1C2C3N(C(=O)CC)C1C1N(C(=O)CC)C(C(N1C(=O)CC)N3C(=O)CC)N2C(=O)CC,inactive: -1.47%
13,O=C(OC1CN2CCC1CC2)c1ccccc1 (configuration not stated),inactive: -0.61%
14,Cc1ccc(OP(=O)(Nc2ccccn2)Oc2ccc(C)cc2)cc1,inactive: 0.24%
15,CC(=O)NC(SC(=S)N(CC(C)C)CC(C)C)C(Cl)(Cl)Cl (configuration not stated),inactive: 1.45%
16,COC(=O)c1cc2c(s1)N=C(c1ccccc1)N(C)P2(=O)N1CCOCC1 (configuration not stated),inactive: -1.85%
17,CCn1c(=O)n(C2CCN(CC3CCCCCCC3)C[C@H]2CO)c2ccccc21 (some centres not stated),inactive: -0.35%
18,CN(C(=O)Cc1ccc(Cl)c(Cl)c1)[C@H]1CCCC[C@@H]1N1CCCC1,inactive: -1%
19,Cc1ccc(NP(=O)(Oc2ccccc2F)Oc2ccccc2F)nc1,inactive: 1.48%
20,CCOP(=O)(Nc1ccccc1)OCC,inactive: -0.04%
21,Cc1cc(SC(NC(=O)c2ccc(F)cc2)C(Cl)(Cl)Cl)ncn1 (configuration not stated),inactive: 1.33%
22,CN(C)P(=O)(N(C)C)n1c(Nc2ccccc2)nnc1-c1ccccc1,inactive: -2.18%
23,O=P(Nc1nc2ccc(Cl)cc2s1)(c1ccccc1)c1ccccc1,inactive: 0.42%
24,CCCC1OP(N)(=O)OCC1CC (configuration not stated),inactive: 4.2%
25,O=C(O)c1ccccc1[As](=O)(O)O,inactive: 1.13%
26,CC(=O)Nc1ccc([As](=O)(O)O)cc1,inactive: -0.32%

row,SMILES,inhibition
1,Nc1cccc2ccc([As](=O)(O)O)cc12,inactive: -498%
2,CCN(N=Nc1nonc1N)c1nonc1N,inactive: 6.76%
3,CN(C(=O)Cc1ccccc1)C1CC[C@@]2(CCCO2)C[C@@H]1N1CCCC1 (some centres not stated),inactive: -3.52%
4,Clc1ccc(Cl)c(NC2=NCC(CBr)S2)c1 (configuration not stated),inactive: 0.94%
5,CN1CCCC(OC(=O)C(c2ccccc2)c2ccccc2)C1 (configuration not stated),inactive: 2.78%
6,Cc1ccc(OP(=O)(Nc2nccs2)Oc2ccc(C)cc2)cc1,inactive: 0.93%
7,COc1ccccc1OP(=O)(Nc1ccc(C)cn1)Oc1ccccc1OC,inactive: 3.78%
8,Cc1ccc(N/C(=N/P(=O)(N2CCOCC2)N2CCOCC2)N2CCOCC2)cc1,inactive: 4.11%
9,CN(C(=O)Cc1ccc(Cl)c(Cl)c1)[C@H]1CCCC[C@H]1N1CCCC1,inactive: 4.87%
10,NC(=O)c1cc([N+](=O)[O-])cc([N+](=O)[O-])c1N,inactive: 4.66%
11,O=C(NC(Sc1ccncn1)C(Cl)(Cl)Cl)c1ccccc1 (configuration not stated),inactive: 1.4%
12,Oc1ccccc1CNc1ccccn1,inactive: 0.84%
13,CC(C)CC(=O)NC(Sc1ccc(Cl)cc1)C(Cl)(Cl)Cl (configuration not stated),inactive: 0.72%
14,Nc1cc(N)c2nonc2c1[N+](=O)[O-],inactive: -10.2%
15,O=[N+]([O-])c1cc([N+](=O)[O-])c(CCNc2ccccc2)c([N+](=O)[O-])c1,inactive: 9.18%
16,CCc1nc2c(n1)c1c(non1O)c1c2no[n+]1[O-],inactive: 0.66%
17,Cc1ccc(NP(=O)(Oc2ccccc2)Oc2ccccc2)nc1,inactive: -0.19%
18,CC(=O)N1C2C3N(C(C)=O)C1C1N(C(C)=O)C(C(N1C(C)=O)N3C(C)=O)N2C(C)=O,inactive: 7.34%
19,O=[N+]([O-])c1cccc2n[nH]nc12,inactive: -1.69%
20,COc1ccc(C2=NCC(CBr)S2)cc1 (configuration not stated),inactive: 0.17%
21,c1cc(-c2nn[nH]n2)ccc1-c1nn[nH]n1,inactive: 6.24%
22,CC1CCN(C(=O)Oc2c(Cl)cc(Cl)c3cccnc23)CC1,inactive: 1.22%
23,CN(C)C(=O)OCCc1n(C)cc[n+]1C,inactive: 0.01%
24,CC(C)=N/N=C(\N)N[N+](=O)[O-],inactive: -1.15%
25,CC(C)c1nc(Nc2ccccc2)n(P(=O)(N(C)C)N(C)C)n1,inactive: 3.95%
26,CCN(/C(=N/P(=O)(N1CCOCC1)N1CCOCC1)N1CCOCC1)c1ccc(OC)cc1,inactive: 2.29%

row,SMILES,inhibition
1,C[N+]1=C2C=CC=CC=C2SC12C([N+](=O)[O-])=CC([N+](=O)[O-])=C[C-]2[N+](=O)[O-] (configuration not stated),inactive: 5.79%
2,Nc1ccc([As](=O)(O)c2ccc(N)cc2)cc1,inactive: 0.46%
3,O=C(Nc1cc([As](=O)(O)O)ccc1O)c1ccccc1,inactive: 4.26%
4,O=P1(N(CCCl)CCCl)OCCCS1 (configuration not stated),inactive: 2.68%
5,O=C(O)CNc1ccc([As](=O)(O)O)cc1,inactive: -0.68%
6,O=[N+]([O-])c1cccc(NC2=NCC(CBr)S2)c1 (configuration not stated),inactive: 2%
7,COC(=O)C1(C)COP(=O)(Nc2ccccc2)OC1 (configuration not stated),inactive: 1.84%
8,O=[N+]([O-])c1ncn(CCn2ncnc2[N+](=O)[O-])n1,inactive: 1.89%
9,CC(C)(C)C(=O)NC(Sc1ccncn1)C(Cl)(Cl)Cl (configuration not stated),inactive: 1.55%
10,COP(=O)(OC)N1CC1c1ccccc1 (configuration not stated),inactive: 0.65%
11,Cc1cc(SC(NC(=O)c2ccccc2)C(Cl)(Cl)Cl)nc(C(C)C)n1 (configuration not stated),inactive: -6.14%
12,CCCCOc1ccc(C(=O)NCC2(N3CCCCC3)CCCCC2)cc1OC,inactive: 2.76%
13,O=C(O)C(O)c1ccc(N(CCCl)CCCl)cc1 (configuration not stated),inactive: 1.41%
14,CCOC(=O)Nc1ccc([As](=O)(O)O)c(O)c1,inactive: -0.73%
15,CC1CCNP(=O)(N(CCCl)CCCl)O1 (configuration not stated),inactive: 0.08%
16,Cc1cc(SC(NC=O)C(Cl)(Cl)Cl)ncn1 (configuration not stated),inactive: 0.39%
17,O=P(Nc1ccccn1)(c1cccc2ccccc12)c1cccc2ccccc12,inactive: 2.81%
18,O=[N+]([O-])c1ccc(Nc2ccc(Oc3ccc([N+](=O)[O-])cc3[N+](=O)[O-])cc2)c([N+](=O)[O-])c1,inactive: 2.32%
19,CCOC(=O)Nc1cccc([As](=O)(O)O)c1,inactive: 3.25%
20,O=C(O)C(=O)c1ccc(N(CCCl)CCCl)cc1,inactive: 1.4%
21,O=C(Nc1ccncc1[N+](=O)[O-])c1ccc([N+](=O)[O-])cc1[N+](=O)[O-],inactive: -2.84%
22,O=C(COc1ccccc1)OC1CN2CCC1CC2 (configuration not stated),inactive: -2.48%
23,COC(=O)C1(C)COP(=O)(N2CCCC2)OC1 (configuration not stated),inactive: 6.25%
24,COP1(=S)c2c(C)nn(CCC#N)c2N=C(c2ccc(F)cc2)N1C (configuration not stated),inactive: 0.33%
